This is an account of results in the OPERA property sets (Mansouri et al. 2018).

For this data set the following is noted: experimental values compiled from the literature.

`O=[N+]([O-])c1cc([N+](=O)[O-])c(O)c([N+](=O)[O-])c1`: the logP (as a rule, a log measure of how a compound divides between an organic and an aqueous phase) is 1.44.

`O=P1(N(CCCl)CCCl)OCCCN1Cl` (configuration not stated) came in with a logP of 1.94.
